The source of these data is publication PMC3479139, “Diverse Small Molecule Inhibitors of Human Apurinic/Apyrimidinic Endonuclease APE1 Identified from a Screen of a Large Public Collection” (PLoS ONE, 2012).

By UniProt entry, the sequences of proteins in these tests, tags left out.
UniProt P27695, whole entry: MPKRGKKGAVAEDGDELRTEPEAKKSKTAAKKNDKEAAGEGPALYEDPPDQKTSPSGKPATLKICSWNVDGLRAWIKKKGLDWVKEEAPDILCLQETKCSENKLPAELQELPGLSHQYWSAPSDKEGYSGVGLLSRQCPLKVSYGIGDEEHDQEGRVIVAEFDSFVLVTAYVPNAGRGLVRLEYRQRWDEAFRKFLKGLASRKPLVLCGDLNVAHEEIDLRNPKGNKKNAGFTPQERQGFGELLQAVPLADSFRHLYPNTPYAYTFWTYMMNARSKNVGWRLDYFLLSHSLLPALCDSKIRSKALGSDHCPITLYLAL

The target of assay [1] is double-stranded 17-mer DNA fragment. As to the kind of experiment: ThO (Thiazole Orange) DNA displacement assay.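 As to all read-outs here: miniaturized displacement of the intercalating dye from unlabeled duplex DNA, used to flag nonspecific DNA binders, chiefly intercalators, groove binders may be missed.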 The assay is classed as binding. The note with it: for IC50: read-out: ThO-DNA binding IC50.
Assay [2] addresses E. coli Endo IV (Escherichia coli, UniProt P0A6C1). As to the kind of experiment: E. coli Endo IV profiling counterscreen.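 Also: selectivity counterscreen of candidate APE1 inhibitors against the bacterial endonuclease Endo IV, run in the same assay format as the primary APE1 high-throughput screen.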 The format is biochemical. The note with it: read-out: EndoIV IC50.
Assay [3] has as its target T1, APE1 (Homo sapiens, UniProt P27695). As to the kind of experiment: Fluorogenic kinetic qHTS APE1 incision assay (primary screen and retest of cherrypicked samples).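 Also: purified APE1 cleaving a fluorophore/dark-quencher labelled 17-mer duplex DNA bearing a tetrahydrofuran AP site, fluorescence rise followed kinetically over the first 2 min, inhibition normalized to controls.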 The assay is classed as biochemical. (Quantitative high-throughput screening tests each substance at several concentrations.)
The target in assay [4] is T1, APE1. Kind of assay: Fluorescence polarization (FP) displacement assay of APE1 binding to AP-DNA probe.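 Also: TAMRA 5′-labeled duplex DNA with THF abasic site (5 nM) and APE1 (20 nM), Mg2+-free buffer, 15 min at room temperature, inhibition seen as lowered polarization.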 The note with it: read-out: FP IC50. In general terms: Fluorescence polarisation rises when a labelled molecule tumbles more slowly, as on binding a larger partner.

Some results are limits rather than exact numbers.

As a reminder, the IC50 is the concentration that inhibits the measured activity by half. As for `C[n+]1c2cc(N)ccc2cc2ccc(N)cc21`, the IC50 in assay [1] is greater than 57 µM; in assay [2], 10 µM.

As to `CC1=C(C#N)c2nc(N)c(C#N)c(C)c2/C1=C\c1ccc(-c2ccccc2C(=O)O)o1`, the IC50 in assay [3] (read-out: APE1 Retest IC50, retest of cherrypicked sample) was 14.1 µM; in assay [3] (read-out: APE1 qHTS IC50, initial quantitative high-throughput screen), 25.1 µM; in assay [4] it was 12.6 µM; in assay [1], 11.2 µM; in assay [2], greater than 57 µM.

In the case of `CC(=O)[C@]1(O)Cc2c(O)c3c(c(O)c2[C@@H](O[C@H]2C[C@H](N)[C@H](O)[C@H](C)O2)C1)C(=O)c1c(O)cccc1C3=O`, the figures for the IC50 in assay [1] and in assay [2] were greater than 57 µM and 12.6 µM, respectively.

`COc1cccc2c1C(=O)c1c(O)c3c(c(O)c1C2=O)C[C@@](O)(C(C)=O)C[C@H]3O[C@H]1C[C@H](N)[C@H](O)[C@H](C)O1`: the “ThO assay signal behaviour (autofluorescence interference)” value in assay [1] is “strong dose-dependent fluorescence signal increase”.

For the compound `O=C(O)c1cccc(N2C(=O)C3CC=C(Cl)CC3C2=O)c1` (stereo not drawn), the IC50 in assay [1] and in assay [2] was greater than 57 µM in each case.
